pKd: −log10 of the molar value.
Target: Trastuzumab IgG (high-affinity anti-HER2 antibody, bivalent) (human (bound by anti-human Fc sensors))
Test: BLI

C1q, the first subcomponent of the C1 complement complex (from UniProt P02745;P02746;P02747)
pKd: 5.03
koff: 0.19 s⁻¹
kon: 21000 M⁻¹ s⁻¹

From PMC6927764
